Measurements published in patent US9738604B2, “Ethynylbenzene derivatives” (Duke University, priority 2010, dated 2017).
Values after ≈ are worked out from the molar mass of the structure shown.

What was measured:
[1] = tested on: E. coli W3110; experiment: microbe, parasite or virus in culture; type: cell-based; details: Escherichia coli, W3110, 22 h, read-out: MIC E. coli W3110
[2] = tested on: P. aeruginosa (PAO1); experiment: MIC, P. aeruginosa; type: cell-based; details: Pseudomonas aeruginosa, PAO1, 22 h, read-out: MIC P. aeruginosa (PAO1)

## CCCc1cc(C2=N[C@@H](C(=O)NO)CO2)cc(OC)c1OC
[1]
  MIC: 11 to 50 µg/mL (≈ 35.7 to 162 µM)
[2]
  MIC: > 100 µg/mL
